From patent US6710041B2, “Pyrrolo[2,1-B][3,1] benzothiazepines and their use for the preparation of medicaments with antipsychotic activity” (Sigma-Tau Industrie Farmaceutiche Riunite S.p.A., priority 2003, dated 2004)

By UniProt entry, the sequences of proteins in these tests, tags left out.
UniProt P14842, whole entry: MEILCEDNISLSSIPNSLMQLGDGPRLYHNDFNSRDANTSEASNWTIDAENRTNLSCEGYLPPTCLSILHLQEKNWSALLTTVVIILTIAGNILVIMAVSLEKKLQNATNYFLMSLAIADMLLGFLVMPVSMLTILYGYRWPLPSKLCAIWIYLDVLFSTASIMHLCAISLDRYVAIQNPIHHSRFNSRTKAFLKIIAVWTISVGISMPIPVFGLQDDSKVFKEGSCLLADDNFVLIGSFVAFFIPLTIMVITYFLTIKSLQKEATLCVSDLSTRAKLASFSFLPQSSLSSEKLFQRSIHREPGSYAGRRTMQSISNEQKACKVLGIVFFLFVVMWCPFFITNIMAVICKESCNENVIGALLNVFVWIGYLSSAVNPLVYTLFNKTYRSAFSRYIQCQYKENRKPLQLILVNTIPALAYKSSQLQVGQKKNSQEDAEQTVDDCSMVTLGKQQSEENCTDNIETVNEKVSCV
UniProt P18901, whole entry: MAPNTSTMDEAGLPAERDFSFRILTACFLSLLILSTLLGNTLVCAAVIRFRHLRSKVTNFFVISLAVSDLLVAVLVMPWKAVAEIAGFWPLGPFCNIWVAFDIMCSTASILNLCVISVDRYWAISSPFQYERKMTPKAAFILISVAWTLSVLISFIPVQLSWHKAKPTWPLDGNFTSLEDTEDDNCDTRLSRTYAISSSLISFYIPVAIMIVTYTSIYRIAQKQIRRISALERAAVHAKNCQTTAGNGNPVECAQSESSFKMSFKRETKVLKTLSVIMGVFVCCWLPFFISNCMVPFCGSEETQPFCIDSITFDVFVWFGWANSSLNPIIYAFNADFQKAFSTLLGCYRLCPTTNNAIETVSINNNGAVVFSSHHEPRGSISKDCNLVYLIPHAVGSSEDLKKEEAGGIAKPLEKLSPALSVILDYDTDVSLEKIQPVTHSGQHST
UniProt P19020, whole entry: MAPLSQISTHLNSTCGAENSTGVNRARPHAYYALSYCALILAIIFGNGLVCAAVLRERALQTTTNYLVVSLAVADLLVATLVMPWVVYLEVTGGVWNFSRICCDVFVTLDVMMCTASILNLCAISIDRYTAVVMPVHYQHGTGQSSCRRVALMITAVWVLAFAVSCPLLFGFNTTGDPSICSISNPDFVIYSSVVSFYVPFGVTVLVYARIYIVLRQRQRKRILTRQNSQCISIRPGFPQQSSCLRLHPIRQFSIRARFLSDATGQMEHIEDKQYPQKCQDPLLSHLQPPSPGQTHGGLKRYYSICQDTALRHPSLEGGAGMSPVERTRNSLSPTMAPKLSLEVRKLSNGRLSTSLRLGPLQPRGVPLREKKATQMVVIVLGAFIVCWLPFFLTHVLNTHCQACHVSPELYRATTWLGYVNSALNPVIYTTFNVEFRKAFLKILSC

How the values were obtained:
5HT2a receptor = 5HT2a receptor (Rattus norvegicus, UniProt P14842); assay: Interaction with 5HT2a receptor, 3H-ketanserine radioligand binding, prefrontal cortex; settings: Table 3; read-out: 5-HT2a pKi (converted)
D1 receptor = target: T1, D1 receptor (Rattus norvegicus, UniProt P18901); assay: Interaction with D1 receptor, [3H]-SCH 23390 radioligand binding, striate; settings: Table 2; read-out: D1 Ki (nM) ± ds
T1 construct: was studied using various different cerebral areas (striate D1 and D2; olfactory tubule D3; prefrontal cortex 5HT2a); from tissue; host or cells: striatum ('striate')

D3 receptor = D3 receptor (Rattus norvegicus, UniProt P19020); assay: Interaction with D3 receptor, 3H-7-OH-DPAT radioligand binding, olfactory tubule
5-HT2 versus D2 receptor = assay: Classification of typical and atypical antipsychotics by 5-HT2 versus D2 pKi ratio and Log Y score

SMILES | Ki (5HT2a receptor) [nM] | Ki (D1 receptor) [nM] | Ki (D3 receptor) [nM] | LogY (5-HT2 versus D2 receptor; Log Y score smaller than 6.48 = atypical profile) | binding affinity at 5 HT2 receptor compared with D2 dopamine receptor (5-HT2 versus D2 receptor; in words)
Cc1ccc2n1C=C(N1CCN(C)CC1)c1ccccc1S2 [ST2092, 1-Methyl-9-(4-methylpiperazin-1-yl)pyrrolo[2,1-b][1,3]benzothiazepine] | 1.12 |  |  |  | 
CN1CCN(C2=Cn3cccc3Sc3ccccc32)CC1 [ST1899, 9-(4-Methylpiperazin-1-yl) Pyrolo [2,1-b][1,3]benzothiazepine] |  | 19 ± 1.3 | 8 ± 0.5 | 4.98 | greater than D2 dopamine receptor
